The test system of this experiment is VEGF. Briefly: VEGF ELISA assay. In kind it is cell-based. Conditions: Homo sapiens, HEK293, read-out: VEGF EC50 μM. The procedure:
HEK293 cells are seeded in 96-well poly-lysine coated plates at 20,000 ceils per well in DMEM (10% FBS, 1% NEAA, 0.1% glutamine). Following overnight incubation, the cells are washed with 100 uL of Opti-MEM (Gibco, Carlsbad, Calif.) to remove serum. Compound in DMSO is serially diluted (beginning with 100 μM) in Qpti-MEM and added to the cells. The conditioned media is analyzed for VEGF with a Quantikine human VEGF immunoassay kit (R&D Systems, Minneapolis, Minn.). Optical density measurements at 450 nm are recorded using the Spectra Max 250 (Molecular Devices, Sunnyvale, Calif.). Data defined as % of DFO stimulation is used to calculate EC50 values with GraphPad Prism 4 software (San Diego, Calif.).

Here are results for one compound from patent publication US11426393B2, “Prolyl hydroxylase inhibitors and methods of use” (Akebia Therapeutics, Inc., priority 2006, dated 2022).

Take `O=C(O)CNC(=O)c1ncc(-c2ccc(F)cc2)cc1O`: the half-maximal effective concentration (EC50) is above 100 µM.
